Laboratory results as given in PubChem BioAssay AID1020 (Sanford-Burnham Center for Chemical Genomics, 2008).
The entries are a selection whose mix differs from that of the whole data set. Active and inactive are the calls of the source. Rule as the data show it: active = inhibition above about 50%; inactive = the rest.

What follows are compounds tested on glucose-6-phosphate dehydrogenase [Leuconostoc mesenteroides] (assay: L. mesenteroides G6PDH inhibitors, counter-screen for G6PDH-coupled screening assays, biochemical, Leuconostoc mesenteroides enzyme (AID 1020)). Conditions: Purified L. mesenteroides G6PDH, diaphorase/resazurin coupled fluorescence, 45 min; at 5 µM; stronger effect = higher value.

Row | SMILES | inhibition
1 | CN(C)CCOC(=O)C(O)(c1ccccc1)C1CCCCC1 (stereo not given) | inactive: 5.2%
2 | COc1ccc(NP(C)(=O)Oc2ccccc2OC)cc1 (stereo not given) | inactive: 3.6%
3 | COc1ccc(OP(C)(=O)Nc2cccc(Br)c2)cc1 (stereo not given) | inactive: -1.1%
4 | O=[N+]([O-])c1cc([N+](=O)[O-])c(NCC2CCS(=O)(=O)C2)c([N+](=O)[O-])c1 (stereo not given) | inactive: 20.4%
5 | CCOP(C)(=S)SCC(=O)NC(C)(CC)C(=O)O (stereo not given) | inactive: 7.1%
6 | Cc1ccccc1NP(C)(=O)Nc1ccccc1C | inactive: 13.7%
7 | CP(=O)(Nc1ccc2c(c1)OCCO2)Oc1ccccc1 (stereo not given) | inactive: -4.7%
8 | CP(=O)(Nc1ccccc1F)Oc1ccccc1 (stereo not given) | inactive: 6.2%
9 | CC(C)c1ccc(OP(C)(=O)Nc2ccc(SC(F)(F)F)cc2)cc1 (stereo not given) | inactive: 4.1%
10 | O=C(OCCN1CCN(CCOCc2ccccc2)CC1)C(O)(c1ccccc1)c1ccccc1 | inactive: 2.5%
11 | CCOC(=O)c1ccc(NP(C)(=O)Oc2ccc(F)cc2)cc1 (stereo not given) | inactive: 9.5%
12 | COc1ccc(OP(C)(=O)Nc2ccc(SC(F)(F)F)cc2)cc1 (stereo not given) | inactive: 7.1%
13 | CP(=O)(Nc1ccccc1)Oc1ccc(F)cc1 (stereo not given) | inactive: 0.9%
14 | CCN(CC)CCCOC(=O)C(O)(c1ccccc1)C1CCCCC1 (stereo not given) | inactive: 1%
15 | COc1ccccc1OP(C)(=O)Nc1ccc(C)c(C)c1 (stereo not given) | inactive: -4.3%
16 | COc1ccc(OP(C)(=O)Nc2ccccc2Br)cc1 (stereo not given) | inactive: -13.1%
17 | Cc1cc(C)cc(OP(C)(=O)Nc2cccc(C(F)(F)F)c2)c1 (stereo not given) | inactive: 13.4%
18 | CP(=O)(OCCOc1ccccc1)OCCOc1ccccc1 | inactive: 1.5%
19 | CP(=O)(Nc1ccc(Cl)cc1Cl)Oc1ccccc1 (stereo not given) | inactive: 2%
20 | Cc1nc2ccc3ccccc3c2o1.O=[N+]([O-])c1cc([N+](=O)[O-])c(O)c([N+](=O)[O-])c1 | active: 52.5%
21 | COc1ccc(OP(C)(=O)Nc2ccccn2)cc1 (stereo not given) | inactive: -0.7%
22 | CN(C)CCOC(=O)C(O)(c1ccccc1)C1CCCC1 (stereo not given) | inactive: 9%
23 | COc1ccccc1OP(C)(=O)Nc1ccc(C)cc1C (stereo not given) | inactive: 12.2%
24 | CP(=O)(Nc1ccccn1)Oc1ccccc1 (stereo not given) | inactive: -13.4%

Row | SMILES | inhibition
25 | CCc1ccc(OP(C)(=O)O)cc1 | inactive: 17%
26 | O=[N+]([O-])c1cc([N+](=O)[O-])c(Nc2ccccn2)c([N+](=O)[O-])c1 | active: 62.7%
27 | Cc1c(NP(C)(=O)Oc2ccc(C(C)C)cc2)c(=O)n(-c2ccccc2)n1C (stereo not given) | inactive: 8%
28 | COc1ccccc1OP(C)(=O)Nc1c(C)n(C)n(-c2ccccc2)c1=O (stereo not given) | inactive: -2.3%
29 | CCc1ccc(OP(C)(=O)Nc2cccnc2)cc1 (stereo not given) | inactive: -4.9%
30 | CP(=O)(Oc1ccccc1)N1CCOC1=O (stereo not given) | inactive: 7.4%
31 | COc1ccc(OP(C)(=O)Nc2ccc(Br)cc2)cc1 (stereo not given) | inactive: 2.9%
32 | CCN(CC)CC(O)COC(=O)C(O)(c1ccccc1)C1CCCCC1 (stereo not given) | inactive: 4.2%
33 | CN(C)C(=O)c1c([N+](=O)[O-])cc([N+](=O)[O-])cc1[N+](=O)[O-] | inactive: 18.6%
34 | CC(C)(C)c1ccc(OP(C)(=O)O)cc1 | inactive: 6.4%
35 | COc1ccccc1OP(C)(=O)Nc1ccccc1Br (stereo not given) | inactive: 17.3%
36 | CP(=O)(Nc1ccc(Cl)cc1)Oc1ccc(F)cc1 (stereo not given) | inactive: 4.4%
37 | CCOC(=O)c1ccc(NP(C)(=O)Oc2ccc(Cl)cc2)cc1 (stereo not given) | inactive: 1.3%
38 | CP(=O)(OC12CC3CC(CC(C3)C1)C2)OC12CC3CC(CC(C3)C1)C2 | inactive: -1.5%
39 | CP(=O)(Nc1ccccc1Br)Oc1ccccc1 (stereo not given) | inactive: 4.9%
40 | COc1ccccc1OP(C)(=O)Nc1ccccc1 (stereo not given) | inactive: 7%
41 | CP(=S)(Nn1cnnc1)Oc1ccccc1 (stereo not given) | inactive: -7.8%
42 | Cc1cc(C)cc(OP(C)(=O)Nc2ccc(SC(F)(F)F)cc2)c1 (stereo not given) | inactive: -22.1%
43 | CP(=O)(NC(=O)Nc1ccccc1)Oc1ccccc1 (stereo not given) | inactive: -0.6%
44 | CP(=O)(Oc1ccccc1)OC(c1ccccc1)C(F)(F)F (stereo not given) | inactive: 13.5%
45 | Cc1cccc(C)c1OP(C)(=O)Nc1ccc(SC(F)(F)F)cc1 (stereo not given) | inactive: -4.5%
46 | CP(=O)(Nc1ccccn1)Oc1ccc(Cl)cc1 (stereo not given) | inactive: 4.2%
47 | CCOC(=O)c1ccc(NP(C)(=O)Oc2ccc(OC)cc2)cc1 (stereo not given) | inactive: 10.2%
48 | CCOP(C)(=S)SCC(=O)NC(C)C(=O)O (stereo not given) | inactive: 16.7%

Row | SMILES | inhibition
49 | CCN(CC)CCCOC(=O)C(O)(c1ccccc1)c1ccccc1 | inactive: -6.6%
50 | O=[N+]([O-])c1ccc2c(c1)C=Nc1ccccc1O2 | inactive: 2.3%
51 | Cc1cccc(C)c1OP(C)(N)=O (stereo not given) | inactive: 6.6%
52 | CC(C)(C)c1ccc(OP(C)(=O)Nc2ccc(SC(F)(F)F)cc2)cc1 (stereo not given) | inactive: 4.2%
53 | Cc1cc(C)cc(OP(C)(N)=O)c1 (stereo not given) | inactive: 14.8%
54 | COc1ccc(OP(C)(=O)Nc2cccc(F)c2)cc1 (stereo not given) | inactive: 5.6%
55 | COc1ccccc1OP(C)(=O)Nc1cc(Cl)ccc1C (stereo not given) | inactive: 2.8%
56 | Cc1ccc(NP(C)(=O)Oc2ccccc2)c(C)c1 (stereo not given) | inactive: 19.2%
57 | COc1ccccc1OP(C)(=O)Nc1ccc(C)cc1 (stereo not given) | inactive: 6%
58 | CCOC(=O)c1ccc(NP(C)(=O)Oc2ccccc2)cc1 (stereo not given) | inactive: 0.1%
59 | CC1=NCCc2c1[nH]c1ccccc21.O=[N+]([O-])c1cc([N+](=O)[O-])c(O)c([N+](=O)[O-])c1 | inactive: 5%
60 | CCOC(=O)c1ccc(NP(C)(=O)Oc2cc(C)cc(C)c2)cc1 (stereo not given) | inactive: -7.4%
61 | Cc1cc(C)cc(OP(C)(=O)Nc2ccc(C)cc2C)c1 (stereo not given) | inactive: 7.7%
62 | Cc1ccc(C)c(NP(C)(=O)Oc2ccccc2)c1 (stereo not given) | inactive: 2.5%
63 | CP(=O)(Nc1cccc(Br)c1)Oc1ccccc1 (stereo not given) | inactive: 12.4%
64 | Cc1cc(C)cc(OP(C)(=O)Nc2ccccn2)c1 (stereo not given) | inactive: 3%
65 | O=[N+]([O-])c1cc([N+](=O)[O-])c(-n2nnc3ccccc32)c([N+](=O)[O-])c1 | inactive: 7.2%
66 | Cc1nc2ccc3ccccc3c2s1.O=[N+]([O-])c1cc([N+](=O)[O-])c(O)c([N+](=O)[O-])c1 | inactive: 8.5%
67 | CP(=O)(Nc1ccc(SC(F)(F)F)cc1)Oc1ccccc1 (stereo not given) | inactive: 1.9%
68 | CCCOc1ccc(NP(C)(=O)Oc2ccc(Cl)cc2)cc1 (stereo not given) | inactive: 0.1%
69 | CN1CCCCC1COC(=O)C1(O)c2ccccc2CCc2ccccc21 (stereo not given) | inactive: 19.7%
70 | COc1ccccc1OP(C)(=O)Nc1c(C)cccc1C (stereo not given) | inactive: 16.8%
